The list shows a part of the results, in another mix than the full data. Records with an inconclusive call do not appear. Activity calls are given as the source filed them. Calls follow the shape of the dose curve; as a rule, active = well fitted inhibition curve with a large enough effect; inconclusive = small, poorly fitted or top-dose-only effect; inactive = no such curve, though single readings can be large or run the other way.
target: Lysine-specific demethylase 4A (Homo sapiens) (UniProt O75164); test: qHTS Assay for Inhibitors of JMJD2A-Tudor Domain; settings: AlphaScreen JMJD2A-Tudor / H3K4me3 peptide binding; also: nearly all actives have a fitted effect of over 50% in size
Text: JMJD2A is a jumonji-domain-containing lysine demethylase that uses Fe(II) together with 2-OG to effect oxidative demethylation of histones. Methylation is one of many […] modification that affect epigenetic transcription. […] It is proposed that the functions of JmjD2A binding to the histones, is to maintain marks after they are installed and to spread the modifications by […], establishing a self-propagating cycle for rapid methylation over a large area of chromatin. […] A quantitative high throughput AlphaScreen has been developed to identify small molecule inhibitors based on a protocol published by NCGC and SGC [4]. […]
[2] Yasgar, et al. Compound Management for Quantitative High-Throughput Screening. […]
[3] Inglese, et al. Quantitative high-throughput screening: a titration-based approach that efficiently identifies biological activities in large chemical libraries. […]
To each well of a 1,536w plate, 2ul of JMJD2A-Tudor (final 100nM) and 1ul biotinylated histone peptide methylated at Lys4 [b-H3(1-18)K4me3] […] Microplates were then read on an EnVision multilabel plate reader using the 1,536 plate HTS AlphaScreen aperture (excitation time 80 ms, measurement time 240 ms).
Potency is read from the fitted curve at half-maximal effect.

Amino acid sequences for entries named in this document (tags omitted). A change or cut given only in a name is not applied to a line headed by its entry.
UniProt O75164: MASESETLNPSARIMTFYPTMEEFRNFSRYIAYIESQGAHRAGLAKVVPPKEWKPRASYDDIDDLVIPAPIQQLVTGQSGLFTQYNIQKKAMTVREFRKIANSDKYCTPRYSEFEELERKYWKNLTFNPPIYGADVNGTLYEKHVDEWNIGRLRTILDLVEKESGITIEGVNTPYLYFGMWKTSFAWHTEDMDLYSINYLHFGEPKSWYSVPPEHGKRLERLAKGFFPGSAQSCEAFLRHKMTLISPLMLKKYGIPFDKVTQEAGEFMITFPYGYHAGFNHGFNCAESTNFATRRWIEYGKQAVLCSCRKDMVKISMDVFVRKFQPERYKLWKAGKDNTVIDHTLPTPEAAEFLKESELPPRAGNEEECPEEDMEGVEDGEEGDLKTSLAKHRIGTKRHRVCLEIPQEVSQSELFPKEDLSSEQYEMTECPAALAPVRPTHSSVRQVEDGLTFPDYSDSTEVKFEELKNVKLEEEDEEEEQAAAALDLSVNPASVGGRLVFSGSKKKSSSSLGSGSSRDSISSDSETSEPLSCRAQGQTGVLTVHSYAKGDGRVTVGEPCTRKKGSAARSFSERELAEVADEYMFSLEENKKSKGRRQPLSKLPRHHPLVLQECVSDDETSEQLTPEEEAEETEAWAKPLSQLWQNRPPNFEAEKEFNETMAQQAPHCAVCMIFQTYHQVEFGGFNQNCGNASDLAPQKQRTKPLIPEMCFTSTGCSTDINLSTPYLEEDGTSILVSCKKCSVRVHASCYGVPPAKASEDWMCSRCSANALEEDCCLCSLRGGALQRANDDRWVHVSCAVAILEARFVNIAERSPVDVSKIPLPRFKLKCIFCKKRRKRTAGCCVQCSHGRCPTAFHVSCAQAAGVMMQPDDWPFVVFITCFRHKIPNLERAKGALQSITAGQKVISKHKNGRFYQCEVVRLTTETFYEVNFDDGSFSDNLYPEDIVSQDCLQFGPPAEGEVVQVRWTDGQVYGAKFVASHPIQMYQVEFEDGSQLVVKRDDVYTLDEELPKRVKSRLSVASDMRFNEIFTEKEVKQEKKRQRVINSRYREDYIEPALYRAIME

SMILES	Potency
OCCOCCN1CCN(C(c2ccccc2)c2ccc(Cl)cc2)CC1 (stereo unspecified)	active: 89.1 µM

Reference: PubChem BioAssay AID504339 (National Center for Advancing Translational Sciences (NCATS), 2011)
